The assay addresses T1, 5-LO (Homo sapiens, UniProt P09917).
T1 construct: incubating a test compound with heparinised human blood, prior to challenge with the calcium ionophore A23187; endogenous in cells; host or cells: leukocytes of heparinised human whole blood
T1 sequence (P09917 1-674): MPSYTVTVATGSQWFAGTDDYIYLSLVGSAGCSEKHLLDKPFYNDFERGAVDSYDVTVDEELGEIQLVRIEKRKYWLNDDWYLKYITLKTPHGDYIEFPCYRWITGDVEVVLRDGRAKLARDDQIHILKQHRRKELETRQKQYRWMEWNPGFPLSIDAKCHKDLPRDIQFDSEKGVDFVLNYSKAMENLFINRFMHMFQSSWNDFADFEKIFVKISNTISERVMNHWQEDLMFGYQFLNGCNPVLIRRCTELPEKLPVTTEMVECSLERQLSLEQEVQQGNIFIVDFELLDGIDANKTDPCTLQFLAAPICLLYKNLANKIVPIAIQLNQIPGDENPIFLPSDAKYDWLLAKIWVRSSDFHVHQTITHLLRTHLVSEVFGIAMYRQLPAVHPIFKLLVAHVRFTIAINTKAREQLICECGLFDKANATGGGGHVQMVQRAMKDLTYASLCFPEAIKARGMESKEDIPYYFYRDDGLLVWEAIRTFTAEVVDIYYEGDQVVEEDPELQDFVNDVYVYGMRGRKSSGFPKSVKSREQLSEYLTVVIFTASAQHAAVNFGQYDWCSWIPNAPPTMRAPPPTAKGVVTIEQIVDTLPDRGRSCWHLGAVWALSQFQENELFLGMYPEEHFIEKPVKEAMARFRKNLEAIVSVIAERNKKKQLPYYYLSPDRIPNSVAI
The assay can be described thus: Test b): in vitro heparinised human blood challenged with calcium ionophore A23187, radioimmunoassay of LTB4. The class given is cell-based. To be noted: A23187 challenge, read-out: IC50 against LTB4. On the procedure: As stated previously, the heterocycles of the formula I are inhibitors of the enzyme 5-LO. […] This test provides a measure of the intrinsic inhibitory properties against soluble 5-LO in an extracellular environment. • b) An in vitro assay system involving incubating a test compound with heparinised human blood, prior to challenge with the calcium ionophore A23187 and then indirectly measuring the inhibitory effects on 5-LO by assaying the amount of L TB4 using the specific radioimmunoassay described by Carey and Forder (F. Carey and R.A. Forder, Brit. […] The effects of a test compound on the enzyme cyclooxygenase (which is involved in the alternative metabolic pathway for arachidonic acid and gives rise to prostaglandins, thromboxanes and related metabolites) may be measured at the same time using the specific radioimmunoassay for thromboxane B2(TxB2) described by Carey and Forder (see above). […] It permits the selectivity of the inhibitory effect on 5-LO or cyclooxygenase to be assessed. • c) An ex vivo assay system, which is a variation of test b) above, involving administration of a test compound (usually orally as the suspension produced when a solution of the test compound in dimethylsulphoxide is added to carboxymethylcellulose), blood collection, heparinisation, challenge with A23187 and radioimmunoassay of L TB4 and TxB2. […]

Among the data in patent publication EP0385662B1, “Heterocycles with inhibitory activity of 5-lipoxygenase” (ZENECA LIMITED, priority 1989, dated 1990) are IC50 values, retold here.

What is called IC50 is the concentration at which inhibition is half-maximal. `COC1(c2cccc(OCc3ccc4c(ccc(=O)n4C)c3)c2)CCOCC1` [4-[3-(1,2-dihydro-1-methyl-2-oxoquinolin-6-ylmethoxy)phenyl]-4-methoxytetrahydropyran]: the IC50 was 30 nM.
